This data set in a line: DIFI-log D: octanol-impregnated PVDF membrane (DIFI-tubes) / buffer distribution, UV readout. Conditions: 1 μl octanol on 0,45 μm PVDF membrane / 1600 μl 50 mM TAPSO pH 7.4, shaken 2 h, UV 250-450 nm, three determinations.

On to Imipramine, for which the “DIFI-log D” value was 2.66.

Source of the values: patent publication US7527975B2, “Determination of high lipophilicity values” (Hoffmann-La Roche Inc., priority 2005, dated 2009).
